From patent publication US20240132521A1, “COMPOUNDS AND METHODS FOR MODULATING HER2” (Iambic Therapeutics, Inc., priority 2022, published 2024)
Like-named read-outs stand apart in the source and are kept apart here.

Legend:
Type in all cases: cell-based
BaF3_EGFRWT cells = BaF3_EGFRWT cells (Homo sapiens, UniProt P00533); assay: Cell growth inhibition assay (CellTiterGlo), BaF3_EGFRWT
BaF3_HER2WT cells = BaF3_HER2WT cells (Homo sapiens, UniProt P04626); assay: Cell growth inhibition assay (CellTiterGlo), BaF3_HER2WT; settings: 3-day treatment, read-out: Cell growth inhibition activity, HER2 WT
BaF3_HER2YVMA cells = BaF3_HER2YVMA cells (Homo sapiens, UniProt P04626, DUP772-775, cells depend on it); assay: Cell growth inhibition assay (CellTiterGlo), BaF3_HER2YVMA; settings: 3-day treatment, read-out: Cell growth inhibition activity, HER2 - YVMA
[1] = 3-day treatment, read-out: Cell growth inhibition activity, EGFR WT

Compound | GI50 (BaF3_EGFRWT cells; read-out: Cell growth inhibition activity, EGFR WT, 3-day treatment) [nM] | GI50 (BaF3_EGFRWT cells; [1]) [nM] | GI50 (BaF3_HER2WT cells) [nM] | GI50 (BaF3_HER2YVMA cells) [nM]
COC1CN(C/C=C/C(=O)N2CCC(c3ccn4ncnc(Nc5ccc(Oc6ccc7c(c6)ncn7C)c(C)c5)c34)CC2)C1 [Example 132, (E)-4-(3-methoxyazetidin-1-yl)-1-(4-(4-((3-methyl-4-((1-methyl-1H-benzo[d]imidazol-5-yl)oxy)phenyl)amino)pyrrolo[2,1-f][1,2,4]triazin-5-yl)piperidin-1-yl)but-2-en-1-one] | 1500 to 5000 | – | – | –
COC1CCN(C/C=C/C(=O)N2CCC(c3ccn4ncnc(Nc5ccc(Oc6ccc7c(c6)ncn7C)c(C)c5)c34)CC2)CC1 [Example 115, (E)-4-(4-methoxypiperidin-1-yl)-1-(4-(4-((3-methyl-4-((1-methyl-1H-benzo[d]imidazol-5-yl)oxy)phenyl)amino)pyrrolo[2,1-f][1,2,4]triazin-5-yl)piperidin-1-yl)but-2-en-1-one] | – | 1500 to 5000 | – | –
Cc1cc(Nc2ncnn3ccc(C4CCN(C(=O)/C=C/CN5CCOCC5)CC4)c23)ccc1Oc1ccc2c(c1)ncn2C [Example 128, (E)-1-(4-(4-((3-methyl-4-((1-methyl-1H-benzo[d]imidazol-5-yl)oxy)phenyl)amino)-pyrrolo[2,1-f][1,2,4]triazin-5-yl)piperidin-1-yl)-4-morpholinobut-2-en-1-one] | – | 1500 to 5000 | < 200 | < 200
Cc1cc(Nc2ncnn3ccc(C4CCN(C(=O)/C=C/CN5CCN(C)CC5)CC4)c23)ccc1Oc1ccc2c(c1)ncn2C [Example 131, (E)-1-(4-(4-((3-methyl-4-((1-methyl-1H-benzo[d]imidazol-5-yl)oxy)phenyl)-amino)pyrrolo[2,1-f][1,2,4]triazin-5-yl)piperidin-1-yl)-4-(4-methylpiperazin-1-yl)but-2-en-1-one] | – | 1500 to 5000 | – | –
Cc1cc(Nc2ncnn3ccc(C4CCN(C(=O)/C=C/CN5CCC(O)C5)CC4)c23)ccc1Oc1ccc2c(c1)ncn2C (stereo not shown) [Example 130, (E)-4-(3-hydroxypyrrolidin-1-yl)-1-(4-(4-((3-methyl-4-((1-methyl-1H-benzo[d]imidazol-5-yl)oxy)phenyl)amino)pyrrolo[2,1-f][1,2,4]-triazin-5-yl)piperidin-1-yl)but-2-en-1-one] | – | 1500 to 5000 | – | –
